{"sequences": {"note": "Sequences of proteins named here, by UniProt entry; tags and fusion partners are left off. Residues count along the entry.", "UniProt A0A0H2ZFZ5, 23-802 R648C": "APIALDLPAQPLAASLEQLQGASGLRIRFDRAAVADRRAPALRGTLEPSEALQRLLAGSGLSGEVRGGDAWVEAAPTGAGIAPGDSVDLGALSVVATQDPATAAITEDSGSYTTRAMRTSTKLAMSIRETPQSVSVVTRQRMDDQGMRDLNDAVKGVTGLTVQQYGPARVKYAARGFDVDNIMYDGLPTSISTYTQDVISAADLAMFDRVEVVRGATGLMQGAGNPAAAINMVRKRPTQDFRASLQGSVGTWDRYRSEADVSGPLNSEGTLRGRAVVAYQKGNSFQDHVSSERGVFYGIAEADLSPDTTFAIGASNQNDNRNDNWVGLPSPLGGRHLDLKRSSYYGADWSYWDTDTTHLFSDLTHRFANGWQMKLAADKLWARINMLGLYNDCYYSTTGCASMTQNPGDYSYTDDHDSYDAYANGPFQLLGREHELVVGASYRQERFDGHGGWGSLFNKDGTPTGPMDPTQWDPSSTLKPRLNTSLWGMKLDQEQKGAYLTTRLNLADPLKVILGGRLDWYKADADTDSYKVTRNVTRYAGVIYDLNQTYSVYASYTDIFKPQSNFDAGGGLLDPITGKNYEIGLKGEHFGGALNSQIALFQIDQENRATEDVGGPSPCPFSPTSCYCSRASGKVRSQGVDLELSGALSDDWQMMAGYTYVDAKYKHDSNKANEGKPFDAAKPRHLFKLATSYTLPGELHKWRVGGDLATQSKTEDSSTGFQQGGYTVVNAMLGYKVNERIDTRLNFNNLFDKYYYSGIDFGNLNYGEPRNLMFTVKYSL"}, "source": "paper PMC9973354", "about": "“Pseudomonas aeruginosa FpvB Is a High-Affinity Transporter for Xenosiderophores Ferrichrome and Ferrioxamine B” (mBio, 2022)", "target": "T1, FpvB R648C (Pseudomonas aeruginosa, UniProt A0A0H2ZFZ5, R648C)", "T1 sequence (A0A0H2ZFZ5 23-802 R648C)": "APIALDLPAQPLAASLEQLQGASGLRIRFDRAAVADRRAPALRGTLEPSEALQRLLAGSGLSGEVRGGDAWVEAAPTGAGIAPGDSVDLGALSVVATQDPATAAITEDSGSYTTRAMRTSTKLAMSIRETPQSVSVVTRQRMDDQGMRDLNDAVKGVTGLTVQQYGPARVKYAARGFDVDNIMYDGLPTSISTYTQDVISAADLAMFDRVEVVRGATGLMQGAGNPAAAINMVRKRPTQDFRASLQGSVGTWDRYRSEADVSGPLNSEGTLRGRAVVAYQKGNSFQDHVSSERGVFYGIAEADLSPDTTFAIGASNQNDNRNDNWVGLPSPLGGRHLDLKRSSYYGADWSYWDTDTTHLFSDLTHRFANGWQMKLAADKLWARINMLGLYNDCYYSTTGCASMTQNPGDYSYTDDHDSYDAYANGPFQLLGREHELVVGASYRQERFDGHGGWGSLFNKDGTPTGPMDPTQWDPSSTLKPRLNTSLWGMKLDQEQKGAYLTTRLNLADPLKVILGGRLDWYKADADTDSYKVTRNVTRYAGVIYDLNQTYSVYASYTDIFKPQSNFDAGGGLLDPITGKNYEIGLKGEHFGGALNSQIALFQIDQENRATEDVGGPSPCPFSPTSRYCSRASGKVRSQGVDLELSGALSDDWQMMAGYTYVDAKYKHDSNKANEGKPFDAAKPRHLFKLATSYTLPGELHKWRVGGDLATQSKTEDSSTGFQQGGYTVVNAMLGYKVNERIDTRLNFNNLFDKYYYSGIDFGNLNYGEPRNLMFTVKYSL", "experiment": "Whole-cell fluorescence quenching, FpvB R648C in ΔfpvA ΔfpvB", "format": "binding", "conditions": "greater than ferrichrome", "source_text": "To determine the affinity of the siderophores for FpvA and FpvB, we adapted the method from Chakravorty et al. to generate a whole-cell sensor where fluorescence quenching serves as an indicator of ligand interaction ([31]). Siderophore binding triggers conformational changes at the extracellular loops of the TBDT (Fig. 3A). Cys substitutions were introduced at the loops and labeled with a fluorescent maleimide dye. When a ligand binds the transporter, the loops fold inward toward the lumen of the barrel, and changes in the chemical environment surrounding the fluorophore lead to quenching ([31], [32]). Fluorescence recovery occurs once the siderophore is taken up and the loop returns to its original conformation.\nCells were cultured overnight in LB with carbenicillin (200 μg/mL) at 37°C with shaking at 200 rpm. […] For fluorescence recovery assays, cells were incubated with 1× PBS plus 0.4% glucose at 37°C with shaking at 200 rpm. […] Cells were spun down and washed 3× with 1× PBS and resuspended in 1× PBS for quenching assays and 1× PBS plus 0.4% glucose for fluorescence recovery assays.\nFor fluorescence quenching and recovery assays, cells were diluted to an OD600 of 0.1 for both types of assays, and 148 μL was added into wells of a 96-well black plate (Corning). Fluorescence was recorded for 5 min at 1-min intervals at 37°C (BioTek Neo; excitation, 494 nm; emission, 520 nm). […]", "data": [{"smiles": "CC(=O)N(O)CCCCCNC(=O)CCC(=O)N(O)CCCCCNC(=O)CCC(=O)N(O)CCCCCN", "note": "[ferrioxamine B]", "values": [{"measurement": "Kd for FpvB relative to ferrichrome", "value": "approximately 10 fold"}]}]}
